Assays:
[1] = molecular target: RORα (Homo sapiens, UniProt P35398); assay: Gal4-RORα-LBD UAS-luciferase reporter assay in TRex-CHO-K1 cells (doxycycline-stimulated); conditions: read-out: IC50 (μM, N=4) ROR-Alpha; library 2520
[2] = molecular target: RORβ (Rattus norvegicus, UniProt P45446); assay: Gal4-RORβ-LBD UAS-luciferase reporter assay in TRex-CHO-K1 cells (doxycycline-stimulated); conditions: read-out: IC50 (μM, N=4) ROR-Beta; library 2520
[3] = molecular target: RORγ (Mus musculus, UniProt P51450); assay: Gal4-RORγ-LBD UAS-luciferase reporter assay in TRex-CHO-K1 cells (doxycycline-stimulated)

Amino acid sequences for entries named in this document (tags omitted). Residues count along the entry.
UniProt P35398, 266-523 limits assumed: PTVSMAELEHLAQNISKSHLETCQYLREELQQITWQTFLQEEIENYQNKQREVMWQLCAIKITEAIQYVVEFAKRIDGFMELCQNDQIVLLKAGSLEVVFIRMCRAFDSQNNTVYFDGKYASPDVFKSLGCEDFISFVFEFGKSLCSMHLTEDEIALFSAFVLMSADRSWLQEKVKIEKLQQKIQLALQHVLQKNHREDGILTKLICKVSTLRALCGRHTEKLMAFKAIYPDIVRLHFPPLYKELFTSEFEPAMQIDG
UniProt P45446, 216-470 limits assumed: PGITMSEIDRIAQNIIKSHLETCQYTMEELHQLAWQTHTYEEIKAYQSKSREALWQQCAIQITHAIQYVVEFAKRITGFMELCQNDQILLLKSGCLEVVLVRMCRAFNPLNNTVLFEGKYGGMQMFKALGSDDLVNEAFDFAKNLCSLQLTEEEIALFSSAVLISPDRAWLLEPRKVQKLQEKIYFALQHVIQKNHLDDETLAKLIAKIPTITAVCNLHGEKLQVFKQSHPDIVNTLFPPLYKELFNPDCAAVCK
UniProt P51450, 261-516 limits assumed: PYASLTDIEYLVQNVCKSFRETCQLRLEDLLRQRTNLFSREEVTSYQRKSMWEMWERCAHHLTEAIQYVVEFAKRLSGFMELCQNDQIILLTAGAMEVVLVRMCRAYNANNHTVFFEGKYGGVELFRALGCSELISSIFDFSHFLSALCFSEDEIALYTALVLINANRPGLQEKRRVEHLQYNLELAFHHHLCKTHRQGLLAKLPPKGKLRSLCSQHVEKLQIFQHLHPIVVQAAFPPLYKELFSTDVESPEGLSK

Structure (SMILES): CCC(C(=O)NC1=NC[C@H]([C@@H](C)CC)N1CCC(C)c1ccccc1)c1ccccc1 (stereo partly shown)
- IC50 [1]: 6.74 µM
- IC50 [2]: 4.87 µM
- % Inhibition at 4 μM (N=3) ([3]; library 2520, RORγ cells): 75.9%
- IC50 ([3]; read-out: IC50 (μM, N=4) ROR-Gamma, library 2520): 5.07 µM
